Earlier results, collected in US20040259937A1, “Hydroxycitric acid complex metal salts, composition, and methods” (INDFRAG LIMITED, priority 2003, published 2004).

Settings: prior art EP 866137

Substance: calcium hydroxycitrate [calcium salt of HCA]
- solubility in water: insoluble
